From article PMC7655571, “Acetylcholinesterase inhibition in electric eel and human donor blood: an in vitro approach to investigate interspecies differences and human variability in toxicodynamics” (Archives of Toxicology, 2020) come the findings set out here.

The chains behind the UniProt entries cited, without tags or fusion partners. Residues count along the entry.
UniProt O42275, 24-633: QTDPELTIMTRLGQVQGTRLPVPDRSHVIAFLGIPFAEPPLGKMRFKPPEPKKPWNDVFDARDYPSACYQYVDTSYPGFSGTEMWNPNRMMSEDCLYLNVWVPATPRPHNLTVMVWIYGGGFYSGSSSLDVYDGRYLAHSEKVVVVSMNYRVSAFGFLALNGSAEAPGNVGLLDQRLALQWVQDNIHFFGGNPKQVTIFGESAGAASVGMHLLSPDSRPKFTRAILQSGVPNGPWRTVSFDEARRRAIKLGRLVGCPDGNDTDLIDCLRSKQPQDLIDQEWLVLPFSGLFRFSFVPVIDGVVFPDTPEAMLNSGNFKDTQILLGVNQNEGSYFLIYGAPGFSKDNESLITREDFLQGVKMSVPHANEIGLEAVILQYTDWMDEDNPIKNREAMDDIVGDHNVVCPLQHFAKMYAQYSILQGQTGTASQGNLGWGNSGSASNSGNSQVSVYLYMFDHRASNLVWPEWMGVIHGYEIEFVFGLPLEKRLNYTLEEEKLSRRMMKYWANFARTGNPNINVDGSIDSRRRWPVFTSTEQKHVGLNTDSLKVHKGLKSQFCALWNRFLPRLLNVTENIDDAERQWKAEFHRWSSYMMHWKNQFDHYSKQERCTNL

The target in the assay is T1, Electrophorus electricus AChE (Electrophorus electricus, UniProt O42275).
T1 construct: purchased Sigma-Aldrich C2888
Description: AChE inhibition, electric eel enzyme (Ellman method). The class given is biochemical. The following applies: 30 min exposure.

For orientation: IC50 means the concentration that inhibits the measured activity by half. A lower IC50 goes with inhibition by little substance.

`CCOP(=O)(OCC)Oc1nc(Cl)c(Cl)cc1Cl` [CPO, Chlorpyrifos-oxon]: the IC50 by setting is: (IC50 Electric eel, room temperature, 3–4 independent experiments) 30 nM; (IC50 electric eel) 27 nM.
